## Ab-95 light chain CDR variants: yeast mating affinities

Data: MIT Lincoln Laboratory AlphaSeq set, Engelhart et al. 2022, doi:10.1038/s41597-022-01779-4, as distributed in FLAb.

All variants were tested on one target, the spike HR2 peptide PDVDLGDISGINAS (SARS-CoV-2).

Parent: Ab-95, a human scFv built as VH, a 15-residue (Gly4Ser)3 linker, VL. Only the CDRs of the light chain vary.
VH: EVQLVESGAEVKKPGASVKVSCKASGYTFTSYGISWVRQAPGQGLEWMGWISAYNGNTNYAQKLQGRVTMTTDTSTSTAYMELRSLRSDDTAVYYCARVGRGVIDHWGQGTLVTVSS
VL: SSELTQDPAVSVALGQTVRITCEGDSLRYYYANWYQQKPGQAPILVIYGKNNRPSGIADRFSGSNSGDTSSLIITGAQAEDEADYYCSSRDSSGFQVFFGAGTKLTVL

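The parent was found by panning a naive human phage display library on the peptide. Library AAYL52 holds single substitutions and randomly drawn double and triple substitutions in the CDRs. The assay is AlphaSeq: two haploid yeast populations carry antibody and antigen on their surface. After mating in shaken culture at 30 °C for 16 h, diploids were selected and their barcode pairs sequenced. Read counts were normalised to the haploid input and turned into Kd by a linear fit to BCL2-family pairs of known affinity, for each replicate. There are three technical replicates.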

Substitutions are numbered in sequence along the VL above, starting at 1 (not Kabat). Every variant below is changed at K50 of the VL (sequential numbering). The Kd shown is the geometric mean over detected replicates; a lower Kd is a better binder. A pair that was not seen in any replicate is written "nd"; this usually means weak binding, but a binder can also be missed. For reference, the parent read 200 nM as the reference entry and 180 nM as a member of this library. Three control strains display no target. For library AAYL52, 28% of the pairings with them gave a signal, with a median of 8.2 µM and one signal in twenty below 800 nM, so weak values seen in few replicates may be background. The control count says in how many pairings with the empty strains this scFv gave a signal.

- A32K K50Q D91P = nd (0 of 3 replicates; controls 3 of 9)
- K50N N51E S55H = 160 nM (3 of 3 replicates; controls 5 of 9)
- D25C K50E S89C = 33 nM (3 of 3 replicates; controls 2 of 9)
- Y30T K50L N51T = 350 nM (3 of 3 replicates; controls 3 of 9)
- A32F K50T F98Q = 4.0 µM (2 of 3 replicates; controls 2 of 9)
- N33W K50R N52I = 3.9 µM (3 of 3 replicates; controls 2 of 9)
- K50A N51F Q96E = 1.9 µM (3 of 3 replicates; controls 4 of 9)
- K50C S89D G94H = 3.4 µM (1 of 3 replicates; controls 2 of 9)
- E23P K50S N51G = 910 nM (3 of 3 replicates; controls 5 of 9)
- G49M K50R V97G = 21 µM (2 of 3 replicates; controls 0 of 9)
- K50D N51V G94V = 7.5 µM (3 of 3 replicates; controls 3 of 9)
- K50W S93V V97Q = 11 µM (1 of 3 replicates; controls 2 of 9)
- Y30H N33P K50H = 28 µM (2 of 3 replicates; controls 2 of 9)
- S26T Y31W K50I = 5.1 µM (2 of 3 replicates; controls 4 of 9)
- K50G S92I S93N = 1.1 µM (3 of 3 replicates; controls 1 of 9)
- D25A K50F S55T = 2.2 µM (3 of 3 replicates; controls 4 of 9)
- D25R K50D D91I = 170 nM (3 of 3 replicates; controls 4 of 9)
- Y29V K50F D91H = 5.1 µM (1 of 3 replicates; controls 1 of 9)
- K50E S88F Q96M = 250 nM (3 of 3 replicates; controls 4 of 9)
- K50M N51G S55G = 1.6 µM (3 of 3 replicates; controls 3 of 9)
- Y31A N33W K50D = nd (0 of 3 replicates; controls 5 of 9)
- L27H N33Q K50N = 4.7 µM (1 of 3 replicates; controls 4 of 9)
- Y30T K50W F95C = 740 nM (3 of 3 replicates; controls 3 of 9)
- K50I S89P S92D = 11 µM (2 of 3 replicates; controls 3 of 9)
- Y30I K50C S92I = nd (0 of 3 replicates; controls 1 of 9)
- A32L G49M K50Q = 4.5 µM (1 of 3 replicates; controls 3 of 9)
- Y31I K50A G94L = 14 µM (2 of 3 replicates; controls 2 of 9)
- K50A P54D D91A = 210 nM (1 of 3 replicates; controls 1 of 9)
- K50Y N51V = 8.5 µM (2 of 3 replicates; controls 4 of 9)
- K50A S88A R90G = 880 nM (3 of 3 replicates; controls 7 of 9)
- D25R K50V = 1.8 µM (3 of 3 replicates; controls 2 of 9)
- N33L K50G V97I = 460 µM (1 of 3 replicates; controls 4 of 9)
- K50W S89G F95C = 4.5 µM (3 of 3 replicates; controls 4 of 9)
- N33R K50Y N51P = 24 µM (1 of 3 replicates; controls 3 of 9)
- Y30F K50S N52E = 430 nM (3 of 3 replicates; controls 2 of 9)
- Y30C A32I K50H = 540 µM (2 of 3 replicates; controls 3 of 9)
- Y30P K50A P54I = 9.7 µM (3 of 3 replicates; controls 0 of 9)
- K50E S88W G94F = 790 nM (2 of 3 replicates; controls 5 of 9)
- K50D R53Q F98H = 550 nM (3 of 3 replicates; controls 2 of 9)
- Y29R K50D F95G = 2.3 µM (3 of 3 replicates; controls 3 of 9)
- K50M R53K R90I = nd (0 of 3 replicates; controls 3 of 9)
- Y29Q K50G Q96G = 210 nM (3 of 3 replicates; controls 6 of 9)
- K50R N52I S92R = 400 nM (3 of 3 replicates; controls 0 of 9)
- K50S S92L F98I = 220 nM (1 of 3 replicates; controls 0 of 9)
- K50N S88Y S89A = 130 nM (3 of 3 replicates; controls 3 of 9)
- K50C R53T G94F = 12 µM (3 of 3 replicates; controls 7 of 9)
- L27A K50F S93G = 18 µM (3 of 3 replicates; controls 4 of 9)
- R28G K50N N51K = 160 nM (3 of 3 replicates; controls 2 of 9)
- R28Q K50S F98G = 6.9 µM (3 of 3 replicates; controls 5 of 9)

The 5 strongest on average among those seen in every replicate, once more:

* D25C K50E S89C: 33 nM (3 of 3 replicates; controls 2 of 9)
* K50N S88Y S89A: 130 nM (3 of 3 replicates; controls 3 of 9)
* R28G K50N N51K: 160 nM (3 of 3 replicates; controls 2 of 9)
* K50N N51E S55H: 160 nM (3 of 3 replicates; controls 5 of 9)
* D25R K50D D91I: 170 nM (3 of 3 replicates; controls 4 of 9)